{
  "sequences": {"note": "Chains of the proteins cited; added tags and fusions are not shown.", "UniProt P15170, whole entry": "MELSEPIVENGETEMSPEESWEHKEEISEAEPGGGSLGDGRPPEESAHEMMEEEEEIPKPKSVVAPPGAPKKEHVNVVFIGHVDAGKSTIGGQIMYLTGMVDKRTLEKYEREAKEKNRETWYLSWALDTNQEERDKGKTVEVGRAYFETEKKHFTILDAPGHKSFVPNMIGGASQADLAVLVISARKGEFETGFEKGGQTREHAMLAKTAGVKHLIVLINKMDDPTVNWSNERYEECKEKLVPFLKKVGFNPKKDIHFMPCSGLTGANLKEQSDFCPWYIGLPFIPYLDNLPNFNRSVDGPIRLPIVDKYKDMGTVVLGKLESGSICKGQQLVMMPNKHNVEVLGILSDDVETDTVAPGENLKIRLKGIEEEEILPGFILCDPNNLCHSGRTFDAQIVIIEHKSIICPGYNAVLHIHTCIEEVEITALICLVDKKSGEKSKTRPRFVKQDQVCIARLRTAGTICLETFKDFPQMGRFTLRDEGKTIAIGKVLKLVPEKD", "UniProt Q96SW2, whole entry": "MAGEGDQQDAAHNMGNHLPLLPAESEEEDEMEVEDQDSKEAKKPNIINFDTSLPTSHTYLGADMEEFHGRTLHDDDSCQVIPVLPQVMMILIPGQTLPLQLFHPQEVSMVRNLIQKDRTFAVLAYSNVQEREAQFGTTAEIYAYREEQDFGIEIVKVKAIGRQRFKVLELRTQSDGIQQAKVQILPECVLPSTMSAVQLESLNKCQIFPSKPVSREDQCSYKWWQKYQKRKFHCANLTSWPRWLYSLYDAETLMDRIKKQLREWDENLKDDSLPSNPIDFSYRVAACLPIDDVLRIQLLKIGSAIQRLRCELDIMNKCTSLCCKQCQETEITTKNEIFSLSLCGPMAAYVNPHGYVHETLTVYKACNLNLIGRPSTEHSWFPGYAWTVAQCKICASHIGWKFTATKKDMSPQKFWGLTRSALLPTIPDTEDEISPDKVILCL", "UniProt Q16531, whole entry partner": "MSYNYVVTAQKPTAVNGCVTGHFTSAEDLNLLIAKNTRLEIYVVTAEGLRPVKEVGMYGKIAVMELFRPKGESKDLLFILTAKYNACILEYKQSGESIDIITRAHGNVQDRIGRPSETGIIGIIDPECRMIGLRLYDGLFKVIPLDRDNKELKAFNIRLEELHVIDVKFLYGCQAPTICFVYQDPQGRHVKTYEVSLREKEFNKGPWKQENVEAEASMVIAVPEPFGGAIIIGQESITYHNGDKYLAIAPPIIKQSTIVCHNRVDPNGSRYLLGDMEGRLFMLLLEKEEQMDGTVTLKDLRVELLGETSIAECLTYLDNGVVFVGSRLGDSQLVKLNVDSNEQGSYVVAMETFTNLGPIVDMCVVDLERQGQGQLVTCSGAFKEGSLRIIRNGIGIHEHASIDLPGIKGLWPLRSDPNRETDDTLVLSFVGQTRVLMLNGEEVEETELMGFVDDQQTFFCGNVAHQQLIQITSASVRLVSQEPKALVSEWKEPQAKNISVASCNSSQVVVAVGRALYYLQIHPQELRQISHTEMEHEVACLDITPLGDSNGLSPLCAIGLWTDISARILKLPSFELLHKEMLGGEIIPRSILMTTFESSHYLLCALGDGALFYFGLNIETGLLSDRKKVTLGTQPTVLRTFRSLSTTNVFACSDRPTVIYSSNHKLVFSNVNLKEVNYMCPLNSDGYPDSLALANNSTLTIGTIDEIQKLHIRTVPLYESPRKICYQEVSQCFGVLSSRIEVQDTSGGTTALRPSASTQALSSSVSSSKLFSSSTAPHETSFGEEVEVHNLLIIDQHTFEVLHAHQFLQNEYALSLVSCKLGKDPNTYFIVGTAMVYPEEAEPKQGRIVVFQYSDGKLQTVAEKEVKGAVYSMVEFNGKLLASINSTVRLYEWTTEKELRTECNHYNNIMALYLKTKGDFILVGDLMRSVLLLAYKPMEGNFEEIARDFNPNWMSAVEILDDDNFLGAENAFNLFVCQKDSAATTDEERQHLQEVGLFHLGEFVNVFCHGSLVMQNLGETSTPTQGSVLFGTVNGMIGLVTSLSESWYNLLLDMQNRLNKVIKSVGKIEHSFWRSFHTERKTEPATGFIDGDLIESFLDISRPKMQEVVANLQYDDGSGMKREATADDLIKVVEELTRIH"},
  "source": "patent US20240238424A1",
  "about": "“HETEROBIFUNCTIONAL COMPOUNDS AND METHODS OF TREATING DISEASE” (Halda Therapeutics OpCo, Inc., priority 2021, published 2024)",
  "target": "GSPT1 (Homo sapiens, UniProt P15170+Q96SW2)",
  "experiment": "GSPT1 HiBit degradation assay",
  "settings": "read-out: GSPT1 DC50; Table 3A; HEK293 LgBiT cells expressing GSPT1_HiBiT, luminescence after 6 hours",
  "text": "Promega developed a HEK293 cell line that constitutively expresses LgBiT protein and GSPT1_HiBiT fusion protein. When both proteins are present, the HiBiT portion of the fusion protein combines with LgBiT protein to form a functional luciferase enzyme. Endurazine, a cell permeable small molecule, is converted by cellular esterases into furimazine, which the luciferase enzyme uses as a substrate to generate luminescence. When GSPT1 is degraded, the HiBit is also degraded. This prevents formation of fully functional luciferase, leading to a loss in luminescence. GSPT1 degradation therefore correlates with a decrease in luminescence and can be measured continuously over time. The concentration of compound at which 50% GSPT1 degradation occurs (DC50) was calculated using this system.\n• HEK293 LgBiT Cell line (Promega Custom) • Endurazine Substrate (Promega Cat. #N2570) • DMEM (Gibco Cat. #11995) • Penicillin/Streptomycin (Gibco Cat. #15140-122) • Heat Inactivated Fetal Bovine Serum (Gibco Cat. #A38400-01) • Hygromycin B (Gibco Cat. #10-687-010) • 384 Well TC Treated White Microplate (Perkin Elmer Cat. #6007680)\nHEK293 LgBiT cells were cultured in DMEM Media supplemented with 10% FBS, 5% Pen/Strep, 200 μg/ml hygromycin and stored in an incubator set at 37° C. and 5% CO2. […] After 6 hours the plate was read on a Perkin Elmer MultiMode Plate Reader Envision 2105 to measure luminescence signal.",
  "data": [
    {"compound": "CN(CCOCCOCCOCCOCCOCCOCCOCCCCCc1cc(Cl)cc(NC(=O)NCc2ccc3c(c2)CN(C2CCC(=O)NC2=O)C3=O)c1)C(=O)CC[C@H]1CC[C@H]2C3CC[C@H]4CC(=O)CC[C@]4(C)[C@H]3CC[C@]12C", "note": "(stereo partly shown)", "values": [
      {"measurement": "DC50", "result": "< 250", "unit": "nM"}
    ]}
  ]
}
